Results on 2 molecules are retold here after EP1076558B1, “2-PHENYL-1-[-(2-AMINOETHOXY)-BENZYL -INDOLE IN COMBINATION WITH ESTROGENS” (Wyeth, priority 1998, dated 1999).

Protein sequences, listed by entry. Tags and fused reporters are not part of them.
UniProt P03372, whole entry: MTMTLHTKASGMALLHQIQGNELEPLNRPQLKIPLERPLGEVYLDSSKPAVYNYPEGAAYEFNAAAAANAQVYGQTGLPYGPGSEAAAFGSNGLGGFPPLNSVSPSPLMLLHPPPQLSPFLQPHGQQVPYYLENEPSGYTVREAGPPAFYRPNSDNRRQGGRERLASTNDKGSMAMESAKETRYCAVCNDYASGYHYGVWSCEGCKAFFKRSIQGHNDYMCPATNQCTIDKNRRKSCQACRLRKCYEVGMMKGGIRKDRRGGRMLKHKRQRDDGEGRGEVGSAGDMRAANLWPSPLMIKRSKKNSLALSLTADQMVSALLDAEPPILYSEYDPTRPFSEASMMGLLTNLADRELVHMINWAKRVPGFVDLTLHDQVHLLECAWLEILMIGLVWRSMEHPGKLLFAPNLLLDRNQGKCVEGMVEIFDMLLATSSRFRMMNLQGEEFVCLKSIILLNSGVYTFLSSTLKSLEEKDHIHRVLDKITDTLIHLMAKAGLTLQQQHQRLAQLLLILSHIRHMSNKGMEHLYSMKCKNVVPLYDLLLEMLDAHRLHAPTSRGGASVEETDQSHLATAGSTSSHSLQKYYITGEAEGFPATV

This test concerns the target estrogen receptor (Homo sapiens, UniProt P03372). Briefly: In vitro estrogen receptor binding assay.

The IC50 is the concentration that inhibits the measured activity by half. As to `COc1ccc(-c2c(C)c3cc(OC)ccc3n2Cc2ccc(OCCN3CCCCCC3)cc2)cc1` [Example No. 91, 1-[4-(2-Azepan-1-yl-ethoxy)-benzyl]-5-methoxy-2-(4-methoxy-phenyl)-3-methyl-1H-indole], the IC50 turned out to be 520 nM.

`Cc1c(-c2ccc(O)cc2)n(Cc2ccc(OCCN(C)C)cc2)c2ccc(O)cc12` [Example No. 100, 2-(4-Hydroxy-phenyl)-3-methyl-1-[4-(2-dimethyl-1-yl-ethoxy)-benzyl]-1H-indol-5-ol] showed an IC50 of 60 nM.
